From US20240189287A1, “PERIPHERALLY RESTRICTED CB1 RECEPTOR BLOCKERS AND USES THEREOF” (BIONANOSIM (BNS) LTD, priority 2021, published 2024)

By UniProt entry, the sequences of proteins in these tests, tags left out.
UniProt P33261, whole entry: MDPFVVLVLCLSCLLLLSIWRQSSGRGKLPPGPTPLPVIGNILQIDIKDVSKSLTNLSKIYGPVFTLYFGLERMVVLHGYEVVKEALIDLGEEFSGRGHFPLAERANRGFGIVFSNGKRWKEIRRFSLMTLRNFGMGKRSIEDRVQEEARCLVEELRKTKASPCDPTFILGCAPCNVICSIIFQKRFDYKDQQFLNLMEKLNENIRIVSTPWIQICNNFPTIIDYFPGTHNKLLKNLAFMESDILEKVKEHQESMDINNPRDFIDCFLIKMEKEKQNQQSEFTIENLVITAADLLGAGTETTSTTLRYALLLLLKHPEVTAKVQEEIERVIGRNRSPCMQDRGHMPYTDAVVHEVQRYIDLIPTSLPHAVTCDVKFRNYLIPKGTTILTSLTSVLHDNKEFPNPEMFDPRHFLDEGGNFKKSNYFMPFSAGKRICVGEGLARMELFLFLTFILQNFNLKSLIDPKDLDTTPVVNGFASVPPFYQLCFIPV
UniProt P05177, whole entry: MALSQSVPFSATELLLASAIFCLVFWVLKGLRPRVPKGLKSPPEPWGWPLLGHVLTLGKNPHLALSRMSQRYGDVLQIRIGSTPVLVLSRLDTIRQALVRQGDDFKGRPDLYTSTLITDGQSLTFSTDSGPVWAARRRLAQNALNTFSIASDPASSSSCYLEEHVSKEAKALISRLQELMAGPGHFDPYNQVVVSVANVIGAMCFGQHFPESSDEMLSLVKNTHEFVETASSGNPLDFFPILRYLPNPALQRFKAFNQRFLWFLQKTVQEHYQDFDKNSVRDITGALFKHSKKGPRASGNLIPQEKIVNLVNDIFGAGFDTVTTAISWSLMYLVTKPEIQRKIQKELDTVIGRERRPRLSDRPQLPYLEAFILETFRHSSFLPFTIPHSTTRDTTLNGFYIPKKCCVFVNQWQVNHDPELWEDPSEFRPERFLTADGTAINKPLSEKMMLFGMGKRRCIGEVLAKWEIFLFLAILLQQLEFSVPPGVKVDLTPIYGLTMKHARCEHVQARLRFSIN

Experiments:
[1] = molecular target: CYP2C19 (Homo sapiens (Human), UniProt P33261); experiment: CYP inhibition in human liver microsomes; format: in vitro ADME; conditions: CYP isozyme 2C19, standard inhibitor
Experimental: (§1) To evaluate the in vitro CYP inhibition of BNS808 and BNS822, the compounds were tested in human liver microsomes that are rich in drug metabolizing enzymes, including CYPs 1A2, 2C9, 2C19, 2D6, 3A4.

[2] = molecular target: CYP 1A2 (Homo sapiens (Human), UniProt P05177); experiment: CYP inhibition in human liver microsomes; format: in vitro ADME
Experimental: as §1

% Inhibition [2] [%]	SMILES	% Inhibition [1] [%]
–	CCC1(c2ccccc2)NC(=O)N(Cc2ccccc2)C1=O (single isomer, unassigned; (+)) [(+)-N-3-benzyl-nirvanol, reference compound]	84.1
90.0	O=c1cc(-c2ccccc2)oc2c1ccc1ccccc12 [a-Naphthoflavone, reference compound]	–
